Experimental melting point values from OPERA 2.9

Source: data files of OPERA 2.9 (Mansouri et al.), github.com/kmansouri/OPERA.

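OPERA's authors assembled the values from existing databases and did not measure them anew. The files give a single number for a compound and property, which may rest on several reports. How each value was measured is not recorded, so precision varies. Where a salt, mixture or single isomer is drawn, the source does not say that exactly this form was tested. Some upstream entries may be estimates or bounds without being marked so.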

The melting point is given in degrees Celsius.
Cells with "–" have no entry in this list.

| compound | name | MP (°C) |
|---|---|---|
| CC(=O)Oc1cc(C(=O)O)cc(OC(C)=O)c1OC(C)=O | Benzoic acid, 3,4,5-tris(acetyloxy)- | 164 |
| O=C1Nc2cc(F)ccc2C1=O | 6-Fluoroisatin | 185 |
| CC1(C)C[C@H]2[C@H]1CC[C@]1(C)CCC[C@@]2(O)C1 | (+)-Caryolan-1-ol | 95 |
| CCCCCCCCCCCCCCCCCC[N+](C)(C)CCC[Si](OC)(OC)OC.[Cl-] | – | -14.4 |
| NS(=O)(=O)c1ccc(OCCBr)cc1 | 4-(2-bromoethoxy)benzenesulfonamide | 112 |
| CCn1c(O)c(/N=N/c2cc(Nc3nc(Cl)nc(Nc4ccc(-c5nc6ccc(C)c(S(=O)(=O)[O-])c6s5)cc4)n3)ccc2S(=O)(=O)[O-])c(C)c(C(N)=O)c1=O.[Na+].[Na+] | – | 347 |
| COc1ccc(-c2csc(N)n2)cc1Br | 4-(3-bromo-4-methoxyphenyl)-1,3-thiazol-2-amine | 189 |
| Nc1cc(Cl)ccc1NCc1ccccc1 | N~1~-Benzyl-4-chlorobenzene-1,2-diamine | 79 |
| CCCCCCCCCCCCCCCCOC(=O)/C=C/C(=O)OCCCCCCCCCCCCCCCC | 2-Butenedioic acid (2E)-, di-C16-18-alkyl esters | 54 |
| Cc1sc2ncn(N)c(=O)c2c1C | 3-Amino-5,6-dimethylthieno[2,3-d]pyrimidin-4(3H)-one | 132 |
| CCCCCCOC(=O)CCCCC(=O)OCCCCCC | Dihexyl hexanedioate | -15.5 |
| CCCCCCCCCCN(C)C | Decyldimethylamine | -33 |
| O=C(O)C1CCN(C(=O)C2CC2)CC1 | 1-(cyclopropylcarbonyl)piperidine-4-carboxylic acid | 212 |
| CCCCCCCCCCC1CO1 (stereo not drawn) | 1,2-Epoxydodecane | -8 |
| Cc1ccc(C(=O)O)n1C | 1,5-dimethyl-1H-pyrrole-2-carboxylic acid | 150 |
| COc1ccc(NCCC(=O)O)cc1 | 3-(4-Methoxy-phenylamino)-propionic acid | 83 |
| CC(C)(C)N(NC(=O)c1ccccc1)C(=O)c1c(F)cccc1F | – | 194 |
| COCc1cc(N)ccc1N | 2-Methoxymethyl-p-phenylenediamine | 80.9 |
| CSc1noc(N)n1 | 3-(Methylsulfanyl)-1,2,4-oxadiazol-5-amine | 101 |
| NC(=O)c1ccc(S(=O)(=O)Cl)cc1 | 4-Carbamoylbenzene-1-sulfonyl chloride | 189 |
| NC(=S)c1cccc([N+](=O)[O-])c1 | 3-Nitrobenzene-1-carbothioamide | 133 |
| C/C(=C\c1ccc(C)cc1)CO | 2-Propen-1-ol, 2-methyl-3-(4-methylphenyl)-, (2E)- | 22.6 |
| CS(=O)(=O)[O-].C[n+]1ccccc1/C=N/O | Pralidoxime methanesulfonate | 236 |
| Oc1cccc2c1NCCC2 | 1,2,3,4-Tetrahydroquinolin-8-ol | 117 |
| O=C(O)c1ccc2nc(Cl)ccc2c1 | 2-Chloroquinoline-6-carboxylic acid | 229 |
| O=C(O)c1ccc(NC(=O)C23CC4CC(CC(C4)C2)C3)cc1 | 4-[(1-adamantylcarbonyl)amino]benzoic acid | 285 |
| Nc1nnc(C23CC4CC(CC(C4)C2)C3)s1 | 5-Adamantan-1-yl-[1,3,4]thiadiazol-2-ylamine | 198 |
| O=C(O)c1cccc(N2CCCC2=O)c1 | 3-(2-oxopyrrolidin-1-yl)benzoic acid | 202 |
| O=C(O)CN1C(=O)c2ccc([N+](=O)[O-])cc2C1=O | (5-Nitro-1,3-dioxo-1,3-dihydro-2H-isoindol-2-yl)acetic acid | 198 |
| CCCCCCCCCCCCCCCCCCP(=O)(OC)OC | Dimethyl octadecylphosphonate | 40.23 |
| CC(C)c1ccc(S(=O)(=O)[O-])cc1.[NH4+] | Ammonium 4-isopropylbenzenesulfonate | 315 |
| O=C(O)c1ccc(C2SCCS2)cc1 | 4-(1,3-dithiolan-2-yl)benzoic acid | 167 |
| Oc1cccc(-c2nnco2)c1 | 3-(1,3,4-oxadiazol-2-yl)phenol | 212 |
| CCSC(=O)NCCC[NH+](C)C.[Cl-] | Prothiocarb hydrochloride [ISO] | 120 |
| O=C(O)c1cc2cccc(Br)c2o1 | 7-Bromo-1-benzofuran-2-carboxylic acid | 257 |
| Nc1ccc(N2C(=O)c3ccccc3C2=O)c(Cl)c1 | N-(4-Amino-2-chlorophenyl)phthalimide | 205 |
| O=C1CCC[C@@H]2[C@H]3CCC[N+]4([O-])CCC[C@@H](CN12)[C@@H]34 (some centres not stated) | – | 208 |
| Oc1ccc2ccccc2c1CN1CCOCC1 | 2-Naphthol, 1-(morpholinomethyl)- | 53 |
| CCCCCCC1CCCC(=O)O1 (stereo not drawn) | 6-Hexyltetrahydro-2H-pyran-2-one | 1.7 |
| C=CC(=O)OCCN(C)S(=O)(=O)C(F)(F)C(F)(F)C(F)(F)C(F)(F)F | 2-(N-Methylperfluorobutylsulfonamido)ethyl acrylate | 54.7 |
| O=C(O)c1c2c(nc3ccc(Br)cc13)CCCC2 | 7-bromo-1,2,3,4-tetrahydroacridine-9-carboxylic acid | 292 |
| C1CCN([P+](N2CCCCC2)(N2CCCCC2)N2CCCCC2)CC1.[Cl-] | Tetrakis(1-piperidyl)phosphonium chloride | 165 |
| CC(=O)c1ccc(-n2cncn2)cc1 | 1-[4-(1H-1,2,4-Triazol-1-yl)phenyl]ethan-1-one | 118 |
| O=Cc1ccc(OCc2ccc(Cl)cc2)cc1 | 4-[(4-Chlorobenzyl)oxy]benzaldehyde | 73 |
| O=C(O)CCOc1ccccc1Br | 3-(2-Bromophenoxy)propanoic acid | 112 |

A selection of 4 entries from above:

compound	name	MP (°C)
O=Cc1ccc(OCc2ccc(Cl)cc2)cc1	4-[(4-Chlorobenzyl)oxy]benzaldehyde	73
C=CC(=O)OCCN(C)S(=O)(=O)C(F)(F)C(F)(F)C(F)(F)C(F)(F)F	2-(N-Methylperfluorobutylsulfonamido)ethyl acrylate	54.7
CC(=O)Oc1cc(C(=O)O)cc(OC(C)=O)c1OC(C)=O	Benzoic acid, 3,4,5-tris(acetyloxy)-	164
COc1ccc(-c2csc(N)n2)cc1Br	4-(3-bromo-4-methoxyphenyl)-1,3-thiazol-2-amine	189